Measured values taken from patent US20090156471A1, “Use of anti-amyloid agents for treating and typing pathogen infections” (RAMOT AT TEL AVIV UNIVERSITY LTD., priority 2005, published 2009).

Experiment: TEM analysis of peptide self-assembly into fibrillar structures
Assay type: physicochemical
Conditions: FIG. 1c
Method: TEM analysis—In all examined cases, peptides were dissolved in water to a concentration of 10 to 50 mg/ml and incubated at room-temperature (RT). Fresh stocks were prepared for each and every experiment. […] Following 1 minute, excess fluid was removed, and the grid was then negatively stained with 10 μl of 2% uranyl-acetate in water. Following 2 minutes, excess fluid was removed from the grid. Samples were viewed in JEOL 1200 EX transmission electron microscope. In the experiments shown, 50 mg/ml peptides were used and micrographs were taken following 1 week. Bar represents 100 nm.

With GQNHGG the “aggregation potential (amount of aggregates) of scrambled QHGGGN sequences” value was “highly aggregative and much more abundant”.
